One series is described as follows: in vitro. Conditions: mouse, hepatocytes.
The target of the next series is GSK3β(h) (Homo sapiens, UniProt P49841). Kind of series: biochemical.
A further series deals with P. falciparum 3D7. The series is described as follows: microbe, parasite or virus in culture. Conditions: Plasmodium falciparum.
The test system of series [1] is asexual P. falciparum 3D7 parasites. Kind of series: Time of inhibition assays in 3D7 parasites. Conditions: 1 μM (8 × EC50), dosed at early ring, immature and mature trophozoite, schizont.

Protein sequences, listed by entry. Tags and fused reporters are not part of them. Lines headed by an entry give the natural chain unless they say otherwise; changes in a name come on top.
UniProt P49841: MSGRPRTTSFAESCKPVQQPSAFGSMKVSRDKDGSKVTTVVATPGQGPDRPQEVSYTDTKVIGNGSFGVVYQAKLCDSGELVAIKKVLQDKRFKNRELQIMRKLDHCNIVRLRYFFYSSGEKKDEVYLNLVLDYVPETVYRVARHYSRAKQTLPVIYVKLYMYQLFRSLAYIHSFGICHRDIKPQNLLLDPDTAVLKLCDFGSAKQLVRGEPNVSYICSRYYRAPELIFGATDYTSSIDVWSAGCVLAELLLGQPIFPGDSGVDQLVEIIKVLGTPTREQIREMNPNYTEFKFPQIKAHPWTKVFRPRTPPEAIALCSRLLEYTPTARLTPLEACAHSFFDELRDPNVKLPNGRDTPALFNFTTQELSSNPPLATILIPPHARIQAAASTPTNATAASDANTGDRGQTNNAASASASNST

Data on two compounds can be found in PMC11571108 (2024).

Structures are written as SMILES.

On to `CCN(CC)Cc1ccc(OC)c(-c2cc3c(-c4ccc(C(=O)O)c(C(C)C)c4)ccnc3[nH]2)c1` [Compound 1, TCMDC-135051], for which the hepatocyte CLint (as a rule, a measure of how fast metabolising enzymes remove a compound, apart from limits set by blood flow) in “in vitro” is 12.3 µL/min/1e6 cells. The remaining activity (usually the activity still measured, relative to the control) at 1 µM at GSK3β(h) is 46%. In addition, the EC50 with P. falciparum 3D7 (3D7, 72 h, read-out: pEC50 (3D7) (converted)) was 129 nM. Besides, the IC50 in the series on P. falciparum 3D7 (3D7, read-out: potency following washout (pIC50) (converted)) was 1230 nM.

In the case of `COc1ccc(CN2CCN(C(=O)CCl)CC2)cc1-c1cc2c(-c3ccc(C(=O)O)cc3)ccnc2[nH]1` [Compound 4, 4-[2-(5-{[4-(2-Chloroacetyl)piperazin-1-yl]methyl}-2-methoxyphenyl)-1H-pyrrolo[2,3-b]pyridin-4-yl]benzoic Acid], the phenotypic response result in series [1] was “arrests development and kills parasites at every stage in the erythrocytic life cycle”.
